42 substances from patent US20240360179A1, “STAPLED PEPTIDES AND METHODS THEREOF” (FOG PHARMACEUTICALS, INC., priority 2021, published 2024) can be followed below.

Amino acid sequences for entries named in this document (tags omitted).
UniProt P35222, whole entry: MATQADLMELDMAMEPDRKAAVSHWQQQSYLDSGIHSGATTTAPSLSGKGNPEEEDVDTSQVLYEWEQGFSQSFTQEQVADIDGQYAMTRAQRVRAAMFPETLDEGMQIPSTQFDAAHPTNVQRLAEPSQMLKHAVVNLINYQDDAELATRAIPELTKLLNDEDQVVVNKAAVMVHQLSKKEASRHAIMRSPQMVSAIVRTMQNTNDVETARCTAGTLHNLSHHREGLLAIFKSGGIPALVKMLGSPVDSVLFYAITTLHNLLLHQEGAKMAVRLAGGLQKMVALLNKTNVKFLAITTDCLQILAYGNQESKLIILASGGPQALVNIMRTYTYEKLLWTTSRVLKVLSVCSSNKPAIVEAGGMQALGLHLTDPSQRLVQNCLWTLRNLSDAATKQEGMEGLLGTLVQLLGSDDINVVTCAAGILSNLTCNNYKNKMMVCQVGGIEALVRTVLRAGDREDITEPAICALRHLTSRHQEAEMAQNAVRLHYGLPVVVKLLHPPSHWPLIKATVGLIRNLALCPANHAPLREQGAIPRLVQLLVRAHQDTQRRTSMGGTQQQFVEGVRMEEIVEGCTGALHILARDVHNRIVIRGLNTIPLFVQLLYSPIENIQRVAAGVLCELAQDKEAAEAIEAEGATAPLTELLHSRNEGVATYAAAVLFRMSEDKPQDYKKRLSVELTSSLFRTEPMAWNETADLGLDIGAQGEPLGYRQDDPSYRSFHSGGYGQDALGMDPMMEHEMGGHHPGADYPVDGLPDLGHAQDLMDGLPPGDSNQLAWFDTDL

For the first experiment, the target named is T1, full-length B-Catenin (Uniprot ID P35222) (Homo sapiens, UniProt P35222).
T1 construct: 10 nM full-length B-Catenin (Uniprot ID P35222)
The experiment is classed as binding. As to conditions: competition fluorescence polarization; read-out: beta-Catenin FP IC50. Background: Polarisation of emitted light reports the rotation of a fluorescent probe.
For “2PyBu-PL3-Asp-DipA-B5-Asp-3COOHF-CyLeu-Ala-Phe-Lys*3-PyrS2-3Thi-34ClF-GlnR*3-NH2 [I-1721]”, the IC50 is below 50 nM.
Still for that read-out and setting: the figure for “Ac-S5-Glu-Asp-DipA-B5-Asp-3COOHF-Aib-Ala-Phe-Lys*3-PyrS1-3Thi-BztA-GlnR*3-NH2 [I-1872]” is below 50 nM.
Turning to “Ac-PL3-Asp-Ile-B5-Asp-3COOHF-Aib-Ala-Phe-Lys*3-PyrS2-Phe-34ClF-GlnR*3-Thr-Lys-Leu-NH2 [I-1361]”, the IC50 is below 50 nM.
Still for that read-out and setting: the figure for “Ac-PL3-Asp-Npg-B5-Asp-TfeGA-Aib-Ala-Phe-Lys*3-PyrS2-Phe-BztA-GlnR*3-Ala-NH2 [I-879]” is below 50 nM; for “Ac-PL3-Asp-Ile-B5-Asp-3COOHF-Aib-Ala-Phe-Lys*3-PyrS2-Phe-34ClF-GlnR*3-Ala-Ala-[mPEG8]Lys-NH2 [I-1406]” it is below 50 nM.
Still for that read-out and setting: the same measure for “Ac-PL3-Asp-Npg-B5-Asp-3COOHF-Aib-Ala-Phe-[m5Meb]Cys-PyrS2-3Thi-BztA-aMeC-Ala-NH2 [I-1390]”: 50 to 200 nM; for “Ac-PL3-Asp-Ile-B5-Asp-3COOHF-GlnR*3-Ala-Phe-Leu-PyrS2-Phe-34ClF-GlnMePDA*3-NH2 [I-1802]”: 50 to 200 nM; for “Ac-PL3-Asp-Ile-B5-Asp-3COOHF-GlnR*3-Ala-Phe-Ala-PyrS2-Phe-34ClF-GlnT4CyMe*3-NH2 [I-1811]”: 50 to 200 nM.
For “Ac-S5-Ala-Asp-Npg-B5-Ser-3COOHF-Aib-Ala-Phe-Lys*3-PyrS2-3Thi-BztA-GlnR*3-Ala-NH2 [I-1223]”, the IC50 was above 1000 nM.
As for “Ac-PL3-Asp-Npg-B5-Asp-3COOHF-Aib-Ala-Phe-Lys*3-PyrS2-2ClF-2NapA-GlnR*3-Ala-NH2 [I-488]”, the concentration for half-maximal inhibition (IC50) is below 50 nM.
Consider “Ac-PL3-Asp-Npg-B5-Asp-3COOHF-Aib-Ala-Phe-TriAzLys*3-[3OHBz]PyrSa-3Thi-BztA-sAla*3-Ala-NH2 [I-1438]”, for which the IC50 was below 50 nM.
On the same count and under the same terms, the figure for “Ac-PL3-Asp-DipA-B5-Asp-3COOHF-Ala-Ala-Phe-Lys*3-PyrS2-3Thi-34ClF-GlnR*3-Ala-Ala-[AdamantC-dPEG2]-Lys-NH2 [I-1917]” is below 50 nM; for “Ac-S5-Pro-Asp-Npg-B5-Asp-Asp-Aib-Ala-Phe-Lys*3-PyrS2-3Thi-BztA-GlnR*3-Ala-NH2 [I-1332]” it is below 50 nM.
As for “Ac-PL3-Asp-Npg-B5-Asp-3COOHF-Aib-Ala-Phe-Lys*3-PyrS2-hCbA-34ClF-GlnR*3-Val-Glu-Ala-NH2 [I-1348]”, the IC50 was below 50 nM.
On the same count and under the same terms, the same measure for “Ac-PL3-Asp-Npg-B5-Asp-3COOHF-[isovaleryl]PyrRa-Ala-Phe-Lys*3-PyrS2-3Thi-BztA-GlnR*3-Ala-NH2 [I-1036]”: below 50 nM; for “Ac-PL3-Asp-Leu-B5-Asp-3COOHF-GlnR*3-Ala-Phe-Val-PyrS2-Phe-34ClF-GlnPip4AE*3-NH2 [I-1925]”: below 50 nM.
Turning to “Ac-PL3-Asp-Npg-B5-Asp-3COOHF-Aib-Ala-Phe-Lys*3-PyrS2-c6Phe-BztA-GlnR*3-Ala-NH2 [I-1161]”, the IC50 was in the range of 50 to 200 nM.
Take “Ac-PL3-Asp-Cha-B5-Asp-3COOHF-CyLeu-Ala-Phe-Lys*3-PyrS2-3Thi-34ClF-GlnR*3-NH2 [I-1046]”: the 50% inhibitory concentration (IC50) is below 50 nM.
For the substance “Ac-PL3-Asp-Npg-B5-Asp-3COOHF-Aib-Ala-Phe-Lys*3-PyrS2-3Thi-BztA-GlnR*3-Ala-Ala-Ala-Ala-Ala-Ala-Ala-NH2 [I-784]”, the 50% inhibitory concentration (IC50) is below 50 nM.
In the case of “Ac-PL3-Asp-Npg-B5-Asp-3COOHF-Aib-Ala-2NapA-Lys*3-PyrS2-Phe-34ClF-GlnR*3-Ala-NH2 [I-482]”, the IC50 was below 50 nM.
In the case of “Ac-PL3-Asp-Ile-B5-Asp-3COOHF-Aib-Ala-Phe-Lys*3-PyrS2-hCypA-BztA-GlnR*3-Ala-NH2 [I-1324]”, the IC50 is below 50 nM.
Still for that read-out and setting: the figure for “Ac-PL3-3Thi-Npg-B5-Asp-3COOHF-Aib-Ala-Phe-Lys*3-PyrS2-3Thi-BztA-GlnR*3-Ala-NH2 [I-931]” is above 1000 nM.
Still for that read-out and setting: the same measure for “Ac-PL3-Asp-Npg-B5-Asp-3COOHF-Aib-Ala-Phe-Lys*3-PyrS2-2NH2F-BztA-GlnR*3-Ala-NH2 [I-1736]”: below 50 nM; for “Ac-S5-Ala-Asp-Npg-B5-Asp-Asp-Aib-Ala-Phe-Lys*3-PyrS2-3Thi-BztA-GlnR*3-Ala-NH2 [I-1329]”: below 50 nM.
The same measure, in the same setting: the figure for “Ac-S6-Glu-Asp-DipA-B5-Asp-3COOHF-Leu-Ala-Phe-Lys*3-PyrS1-Phe-34ClF-GlnR*3-NH2 [I-1930]” is below 50 nM; for “Ac-PL3-Asp-Npg-B5-Asp-[Succinate]Dap-Aib-Ala-Phe-Lys*3-PyrS2-3Thi-BztA-GlnR*3-Ala-NH2 [I-1431]” it is below 50 nM; for “Ac-PL3-Asp-Leu-B5-Asp-3COOHF-GlnR*3-Ala-Phe-Val-PyrS2-Phe-34ClF-GlnT4CyMe*3-NH2 [I-1840]” it is 50 to 200 nM.
On to “124TriAc-PL3-Asp-DipA-B5-Asp-3COOHF-CyLeu-Ala-Phe-Lys*3-PyrS2-3Thi-34ClF-GlnR*3-NH2 [I-1718]”, for which the IC50 was below 50 nM.
As for “Ac-PL3-Asp-Chg-B5-Asp-3COOHF-Gly-Ala-Phe-Lys*3-PyrS2-3Thi-BztA-GlnR*3-Ala-NH2 [I-994]”, the IC50 was below 50 nM.
For “Ac-PL3-Asp-Npg-B5-Asp-3COOHF-Aib-Ala-RbMeXylA-Lys*3-PyrS2-3Thi-BztA-GlnR*3-Ala-NH2 [I-601]”, the IC50 is above 1000 nM.
Consider “Ac-PL3-Asp-Npg-B5-Asp-[CH2CO2H]Acp-Aib-Ala-Phe-Lys*3-PyrS2-3Thi-BztA-GlnR*3-Ala-NH2 [I-1397]”, for which the IC50 was in the range of 200 to 750 nM.
For “Ac-PL3-Asp-Chg-B5-Asp-3COOHF-nLeu-Ala-Phe-Lys*3-PyrS2-3Thi-BztA-GlnR*3-Ala-NH2 [I-979]”, the IC50 is below 50 nM.
As to “Ac-PL3-Asp-Npg-B5-Hse-TfeGA-Ala-Ala-Phe-Lys*3-PyrS2-2F3MeF-BztA-GlnR*3-Ala-NH2 [I-119]”, the IC50 was above 1000 nM.
As for “Ac-PL3-Asp-Npg-B5-Asp-3COOHF-Aib-Ala-Phe-TriAzLys*3-[SMeIso2]PyrSc704-3Thi-BztA-sAla*3-Ala-NH2 [I-1122]”, the IC50 is 50 to 200 nM.
Turning to “Ac-PL3-Asp-Npg-B5-Asp-3COOHF-Aib-Ala-Phe-Lys*3-PyrS2-2MeF-BztA-GlnR*3-NH2 [I-1545]”, the IC50 was in the range of 200 to 750 nM.
Regarding “Ac-PL3-Asp-Ile-B5-Asp-3COOHF-Aib-Ala-Phe-TriAzLys*3-PyrS2-Phe-34ClF-sAla*3-Ala-NH2 [I-1095]”, the IC50 is below 50 nM.
Consider “NPyroR3-Asp-Ala-B5-Asp-3COOHF-Aib-Ala-Phe-Lys*3-PyrS2-3Thi-BztA-GlnR*3-Ala-NH2 [I-1493]”, for which the IC50 is above 1000 nM.
Consider “Ac-PL3-Asp-Npg-B5-Asp-3COOHF-Aib-Ala-Phe-Lys*3-PyrS2-3Thi-BztA-GlnR*3-dAla-NH2 [I-459]”, for which the IC50 was below 50 nM.
Still for that read-out and setting: the same measure for “Ac-PL3-Asp-Ile-B5-Asp-3COOHF-[isovaleryl]Acp-Ala-Phe-TriAzLys*3-PyrS2-Phe-34ClF-sAla*3-NH2 [I-1241]”: below 50 nM; for “Ac-PL3-Asp-Npg-B5-Asp-3COOHF-Aib-Ala-SbiPrF-Lys*3-PyrS2-3Thi-BztA-GlnR*3-Ala-NH2 [I-597]”: above 1000 nM; for “Ac-Pro-S5-Ala-Asp-DipA-B5-Asp-3COOHF-Aib-Ala-Phe-Lys*3-PyrS1-Phe-34ClF-GlnR*3-NH2 [I-1888]”: below 50 nM.

Staying with this experiment, now noted: read-out: beta-Catenin FP IC50.
Turning to “Ac-PL3-Asp-Leu-B5-Asp-Asp-Ala-Ala-Phe-Lys*3-PyrS2-3Thi-BztA-GlnR*3-NH2 [I-4]”, the IC50 is below 50 nM.

For orientation: IC50 means the midpoint of a concentration-inhibition curve.
